These results are taken from ChEMBL document CHEMBL1131999, “Design, synthesis and testing of amino-bicycloaryl based orally bioavailable thrombin inhibitors” (Bioorg Med Chem Lett, 1999).

The target of this experiment is Prothrombin (Homo sapiens, UniProt P00734). Nature of the experiment: In vitro thrombin inhibition.

With `COc1cc(C)c(S(=O)(=O)N[C@@H](CC(=O)OC(C)(C)C)C(=O)NC(Cc2ccc3c(N)nccc3c2)C(=O)N2CCCCC2)c(C)c1C` (stereo partly specified), the 50% inhibitory concentration (IC50) came out at 0.08 µM.
